# Curated experimental data: melting point values

Values as listed in the OPERA 2.9 repository of K. Mansouri.

The melting point is given in degrees Celsius.
"–" marks a cell with nothing listed here.
The databases behind each value are named after "via".

SMILES,name,mp (°C),via
CCc1ccc(C(N)=S)cc1,4-ethylbenzenecarbothioamide,49,OCHEM
CC(O)CN(C)CC(C)O (configuration not stated),"2-Propanol, 1,1'-(methylimino)bis-",-32,eChemPortal
CCCCCCCCCCCC(=O)OC1CC(C)(C)NC(C)(C)C1,"2,2,6,6-Tetramethylpiperidin-4-yl dodecanoate",7,eChemPortal
OCOCCOCO,"1,2-Bis[hydroxymethoxy]ethane",-48.33,eChemPortal
CCOC(=O)C1C2CCC(CC2)C1N.Cl (configuration not stated),–,148.6,eChemPortal
Cc1ccccc1NC1=CC=C(Nc2ccccc2C)C2C(=O)c3ccccc3C(=O)C12 (configuration not stated),Solvent Blue 101,220.8,eChemPortal
S=C(SSCCCCCCSSC(=S)N(Cc1ccccc1)Cc1ccccc1)N(Cc1ccccc1)Cc1ccccc1,–,90.9,eChemPortal
COC(=O)c1n[nH]c2ccc(N)cc12,Methyl 5-amino-1H-indazole-3-carboxylate,182,OCHEM
Cc1cc(C(C)(C)C)cc(C)c1S(=O)(=O)Cl,"4-tert-butyl-2,6-dimethylbenzenesulfonyl chloride",114,OCHEM
COc1ccc(C=NO)cc1OC,"N-[(3,4-Dimethoxyphenyl)methylidene]hydroxylamine",92,OCHEM
CCCCCCCCCCCCN(CCCN)CCCN,"N-(3-Aminopropyl)-N-dodecylpropane-1,3-diamine",9.25,eChemPortal
O=C(O)CCCOc1ccc(Br)cc1,4-(4-bromophenoxy)butanoic acid,131,OCHEM
COC(=O)c1ccc(I)c(Br)c1,Methyl 3-bromo-4-iodobenzoate,244,OCHEM
CC(C)CCOC(=S)S,"Carbonodithioic acid, O-(3-methylbutyl) ester",-6,eChemPortal
CCN(CC)CCN1c2ccccc2Sc2ccccc21.Cl,Diethazine hydrochloride,185,OCHEM
CC(CC(C)(C)C)CC(C)(C)CC(C)(C)C (configuration not stated),"2,2,4,4,6,8,8-Heptamethylnonane",-15,eChemPortal
NNC(=O)c1n[nH]c2c1CCCC2,"4,5,6,7-tetrahydro-1H-indazole-3-carbohydrazide",177,OCHEM
O=C1C=CC(=O)N1c1cccc2ccccc12,"1-(Naphthalen-1-yl)-1H-pyrrole-2,5-dione",104,OCHEM
CC(=O)O[C@H]1[C@H]2O[C@H]2C2=CC(=O)[C@]3(C[C@]2(C)[C@H]1C)O[C@]3(C)C=O,–,156,PubChem
Cc1cc(OC(C)C(=O)O)ccc1Cl (configuration not stated),2-(4-Chloro-3-methylphenoxy)propanoic acid,88,OCHEM
C=C(Cl)C(=O)OCCC(F)(F)C(F)(F)C(F)(F)C(F)(F)C(F)(F)C(F)(F)F,((Perfluorohexyl)ethyl)-2-chloropropenoate,-23,eChemPortal
COc1ccc(-c2nc(N)sc2-c2ccc(OC)cc2)cc1,"4,5-Bis(4-methoxyphenyl)-1,3-thiazol-2-amine",208,OCHEM
NS(=O)(=O)c1cc(Br)ccc1Br,"2,5-dibromobenzenesulfonamide",200,OCHEM
ClCc1coc(-c2ccc(Cl)cc2)n1,"4-(chloromethyl)-2-(4-chlorophenyl)-1,3-oxazole",92,OCHEM
Nc1nc(-c2cccc(F)c2)cs1,"4-(3-Fluorophenyl)-1,3-thiazol-2-amine",114,OCHEM
O=C(O)c1cc2c([nH]c1=O)CCC2,–,274,OCHEM
O=C(CCCl)Nc1ccc(Cl)cc1,3-Chloro-N-(4-chlorophenyl)propanamide,125,OCHEM
O=C(O)c1cc([N+](=O)[O-])ccc1N1CCCCC1,5-Nitro-2-piperidin-1-yl-benzoic acid,195,OCHEM
Nc1sc2c(c1-c1nc3ccccc3s1)CCCC2,–,102,OCHEM
C=C(C)C(=O)OC1C2CCC(C2)C1CC(O)(C(F)(F)F)C(F)(F)F (configuration not stated),–,47.5,ChemicalBook
N#Cc1cc([N+](=O)[O-])cnc1Cl,2-Chloro-5-nitronicotinonitrile,120,OCHEM
Cc1ccc(Nc2cc(C(=O)O)c(Nc3ccc(C)cc3)cc2C(=O)O)cc1,"2,5-Bis(p-toluidino)terephthalic acid",326,eChemPortal
S=c1[nH]nc2sc3ccccc3n12,"s-Triazolo(3,4-b)benzothiazole-3-thiol",253,OCHEM
CCCc1nnc(N)s1,"5-Propyl-1,3,4-thiadiazol-2-amine",200,OCHEM
Cc1cc(C=O)c(C)[nH]1,"2,5-dimethyl-1H-pyrrole-3-carbaldehyde",140,OCHEM
Cc1ccc(C=CC(=O)O)o1,3-(5-Methyl-2-furanyl)-2-propenoic acid,119,OCHEM
Cc1nn(-c2ccccc2)c(Cl)c1CO,(5-chloro-3-methyl-1-phenyl-1H-pyrazol-4-yl)methanol,90,OCHEM
NC(=O)C1COc2ccccc2O1 (configuration not stated),"2,3-dihydro-1,4-benzodioxine-2-carboxamide",142,OCHEM
Cc1n[nH]c(=S)n1Cc1ccccc1,"4-benzyl-5-methyl-4h-[1,2,4]triazole-3-thiol",165,OCHEM
O=C(O)CCC1(CCC(=O)O)CCCC(CCC(=O)O)(CCC(=O)O)C1=O,"2-Oxocyclohexane-1,1,3,3-tetrapropionic acid",178.3,eChemPortal
OCc1ccc2ccccc2n1,2-Hydroxymethylquinoline,183,OCHEM

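OPERA's authors assembled the values from existing databases and did not measure them anew. A listed value is a point estimate from one report or more. How each value was measured is not recorded, so precision varies. Where a salt, mixture or single isomer is drawn, the source does not say that exactly this form was tested. Some entries may be limits or estimates that an upstream database listed as plain numbers.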